# Laboratory results from patent publication US9566334B2, “Combinations of a PI3K/AKT inhibitor compound with an HER3/EGFR inhibitor compound and use thereof in the treatment of a hyperproliferative disorder” (THE GENERAL HOSPITAL CORPORATION, priority 2012, dated 2017).
# What was measured:
# [1] = system: EGFR and HER3; assay: CEER analysis of active and total EGFR and HER3 in xenograft tumors; assay type: in vivo, mice; settings: HCC70 xenografts
# Description: The levels of EGFR and HER3 expression/activation in HCC70 tumors collected at the end of the experiments (day 39) was investigated. […] Frozen tissue was analyzed by Cooperative, Enhanced, Enzyme Immunoreactive (CEER), a platform that utilizes reverse-phase detection of nanogram quantities of protein.
# The levels of pathway protein expression and their activation in xenografts were determined by CEER. (Kim et al., ASCO Annual Meeting abstract P2-06-13, (2010)) CEER utilizes the formation of unique immuno-complexes between capture antibodies printed on a nitrocellulose microarray surface, the target molecule in cell lysate reacted with the slide, and two independent detector-antibodies. One of the detector-antibody is conjugated to glucose oxidase, and the other is conjugated to horseradish peroxidase. Target detection (expressed as computational unit, CU) requires the presence of both detector-antibodies and the enzyme channeling event between glucose oxidase and horseradish peroxidase will not occur unless both antibodies are in close proximity.
# [2] = system: TNBC patients; assay: Neoadjuvant trial of cetuximab with docetaxel (pCR, HER3 IHC); assay type: in vivo, human
# Description: To investigate whether changes in EGFR and HER3 can affect the response to targeted therapy in the clinic, the expression of these receptors was measured in samples from TNBC patients enrolled in two pilot neoadjuvant clinical trials testing the antitumor activity of the anti-EGFR antibodies panitumumab (40 patients) and cetuximab (30 patients) in combination with standard chemotherapy.
# Patient samples: Tumor tissue was fixed in 10%-buffered formalin for 48 h and further embedded in paraffin. Four-micron sections were deparaffinized in xylene and hydrated in graded alcohols. For EGFR detection, the antigen was retrieved by protease treatment (8 min at 37° C.) and the sections further incubated at 37° C. for 1 h with pre-diluted, ready-to-use mouse monoclonal anti-EGFR (clone 3C6, Ventana, Tucson, Ariz.). The antigen-antibody reaction was visualized by UltraView DAB reveal system in a Benchmark XT automated IHC stainer (all from Ventana). For HER3, the antigen retrieval was performed by heating the sections at 97° C. for 20 min in EnVision® Target Retrieval Solution High pH (Dako) in PT-Link apparatus (Dako). […] Both EGFR and HER3 expressions were quantified using an arbitrary scale having 0, 0.5, 1, 1.5, 2, 2.5 and 3 as measures of increasing staining intensity. […]
# [3] = system: HCC70 cells; assay: Heregulin- and EGF-induced proliferation; assay type: cell-based; settings: HCC70 cells stimulated with EGF; antibodies 10 nM, GDC-0068 and GDC-0941 1 uM, 5 days
# Description: In order to dissect the roles of HER3 inhibition in these models, the activity of cetuximab, an antibody targeting exclusively EGFR, with MEH[…] in combination with either GDC-0068 or GDC-0941 in HCC70 cells was determined. […] For proliferation, 5×10^5 cells were seeded in 96-well plates and treated with the indicated concentrations of GDC-0068, GDC-0941, and/or MEH[…]. After 5 days, cells were fixed and stained with Crystal Violet. Cell proliferation was also analyzed with CellTiter-Glo Luminescent Cell Viability Assay (Promega) as described by the manufacturer. For heregulin (HRG, Peprotech) and epidermal growth factor (EGF, Peprotech)-induced proliferation, 5×10^5 cells were treated with GDC-0068, GDC-0941, and/or MEH[…] in the presence of 4 ng/ml of ligands for 5 days and then stained with Crystal Violet.
substance,measurement,setting,value
cetuximab: epidermal growth factor receptor (EGFR) antagonist; antibody targeting exclusively EGFR [reference compound],EGFR phosphorylation (CEER),[1],blocked EGFR phosphorylation
same,patients who experienced pCR,"[2]; of 30 patients, cetuximab combined with docetaxel",9
same,non-pCR patients with HER3 expression upregulated in residual tumors versus baseline (IHC),[2]; p equals 0.103,11 out of 19
same,effect on antiproliferative activity mediated by PI3K/Akt inhibition,[3],enhanced the antiproliferative activity mediated by PI3K/Akt inhibition
